Data taken from patent US20050238732A1, “Carbonated germicide with pressure control” (priority 2003, published 2005).

Conditions: in the Example 17 test solution

## n-tetrabutylammonium iodide [Bu4NI]
  solubility: 57 mM
